Laboratory results taken from ChEMBL document CHEMBL1145786, “Synthesis and structure-activity relationship of alpha-sulfonylhydroxamic acids as novel, orally active matrix metalloproteinase inhibitors for the treatment of osteoarthritis” (J Med Chem, 2003).

Target: Collagenase 3 (Homo sapiens, UniProt P45452)

IC50: 127 nM
Structure (SMILES): CCCC[C@@](Cc1cccnc1)(C(=O)NO)S(=O)(=O)c1ccc(OC)cc1
